The text below walks through data of PMC5041076, “Ilex kaushue and Its Bioactive Component 3,5-Dicaffeoylquinic Acid Protected Mice from Lipopolysaccharide-Induced Acute Lung Injury” (Scientific Reports, 2016).

In assay [1] the test system is fMLF/CB-activated neutrophils. Nature of the assay: Elastase release in fMLF/CB-activated neutrophils. The conditions noted are these: read-out: IC50 HNE (NE activity / elastase release); fMLF/CB-activated human neutrophils.
In assay [2] the test system is fMLF/CB-activated neutrophils. Nature of the assay: O2.- generation in fMLF/CB-activated neutrophils (ferricytochrome c reduction). The note with it: read-out: IC50 O2^.− generation; fMLF/CB-activated human neutrophils.
Assay [3] concerns the target Bovine chymotrypsin (Bos taurus, UniProt P00766). Nature of the assay: Serine protease enzyme inhibition assay, chymotrypsin. It counts as biochemical. The conditions noted are these: read-out: IC50 Chymotrypsin, mean ± S.E.M. (n ≥ 3).

Consider `N#C/C=C1/CCC(O)CC1O[C@@H]1O[C@H](CO)[C@@H](O)[C@H](O)[C@H]1O` (stereo partly drawn), for which the IC50 in assay [1] is more than 10 µM; in assay [2] it was more than 10 µM; in assay [3], more than 30 µM.
